Laboratory results from patent US10513520B2, “Sulfamide and sulfamate inhibitors of hHint1” (Regents of the University of Minnesota, priority 2016, dated 2019).

Assay: Solubility (aqueous buffers, water, DMSO)
Settings: for soluble in (solvent): additional compounds 1a-1f

| SMILES | water solubility (additional compounds 2b, 2c) | soluble in (solvent) |
| --- | --- | --- |
| Nc1nc2c([C@@H]3O[C@H](COS(=O)(=O)NC(=O)CCc4c[nH]c5ccccc45)[C@@H](O)[C@H]3O)scc2c(=O)[nH]1 | highly water soluble | – |
| Nc1nc2c(ncn2[C@@H]2O[C@H](COC(=O)NCCc3cnc[nH]3)[C@@H](O)[C@H]2O)c(=O)[nH]1 | – | DMSO |
| CCN(CC)C(=O)OC[C@H]1O[C@@H](n2cnc3c(=O)[nH]c(N)nc32)[C@H](O)[C@@H]1O | – | DMSO |
| Nc1nc2c(ncn2[C@@H]2O[C@H](COC(=O)NCCc3c[nH]c4ccccc34)[C@@H](O)[C@H]2O)c(=O)[nH]1 [Compound 3, guanosine-5′-tryptamine carbamate] | – | DMSO |
| Nc1nc2c(ncn2[C@@H]2O[C@H](COC(=O)NCc3ccccc3)[C@@H](O)[C@H]2O)c(=O)[nH]1 | – | insoluble |
